Laboratory results: article PMC2828546, “Screening-based discovery of drug-like O-GlcNAcase inhibitor scaffolds” (Febs Letters, 2010)

Target: T1, hOGA (Homo sapiens, UniProt O60502)
T1 construct: made in house
T1 sequence (O60502 1-916): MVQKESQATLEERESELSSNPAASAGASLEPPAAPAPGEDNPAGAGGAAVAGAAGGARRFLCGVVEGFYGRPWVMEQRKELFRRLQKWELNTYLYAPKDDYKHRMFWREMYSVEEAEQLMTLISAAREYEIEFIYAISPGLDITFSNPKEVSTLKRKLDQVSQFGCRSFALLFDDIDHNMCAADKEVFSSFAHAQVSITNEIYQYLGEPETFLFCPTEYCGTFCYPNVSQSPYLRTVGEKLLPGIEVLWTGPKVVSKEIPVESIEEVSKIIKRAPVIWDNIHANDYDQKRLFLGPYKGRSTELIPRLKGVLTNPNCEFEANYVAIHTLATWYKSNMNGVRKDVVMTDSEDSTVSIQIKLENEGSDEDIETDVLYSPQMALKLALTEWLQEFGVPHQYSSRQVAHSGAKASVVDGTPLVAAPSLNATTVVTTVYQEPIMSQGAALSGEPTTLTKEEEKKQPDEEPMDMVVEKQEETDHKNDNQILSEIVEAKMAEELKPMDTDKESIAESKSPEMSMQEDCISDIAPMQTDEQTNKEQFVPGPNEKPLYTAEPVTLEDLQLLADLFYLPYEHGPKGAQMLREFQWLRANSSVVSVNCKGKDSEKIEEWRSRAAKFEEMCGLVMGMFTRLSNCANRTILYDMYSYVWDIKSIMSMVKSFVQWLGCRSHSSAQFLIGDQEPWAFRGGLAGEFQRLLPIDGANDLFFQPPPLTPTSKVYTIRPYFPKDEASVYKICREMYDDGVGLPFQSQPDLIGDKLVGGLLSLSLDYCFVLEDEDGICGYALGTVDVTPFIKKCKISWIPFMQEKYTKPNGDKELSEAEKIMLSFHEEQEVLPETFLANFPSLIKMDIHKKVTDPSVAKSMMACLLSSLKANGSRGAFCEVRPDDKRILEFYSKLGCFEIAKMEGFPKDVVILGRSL
Experiment: hOGA inhibition, fluorogenic 4MU-NAG substrate
Assay type: biochemical
Details: for Selectivity (HexA/B/hOGA): ratio of HexA/B to hOGA inhibition constants

| Structure (SMILES) | Selectivity (HexA/B/hOGA) | hOGA BEI (Binding Efficiency Index) (BEI = -log(Ki)/M, M in kDa, Ki from IC50 by Cheng-Prusoff) |
| --- | --- | --- |
| CC(=O)N1CCN(c2ccc(OCC3COC(Cn4ccnc4)(c4ccc(Cl)cc4Cl)O3)cc2)CC1 (stereo not drawn) [Ketoconazole, ketoconazole] | 2.6 | – |
| CNc1ncnc2nc[nH]c12 [N^6-methyladenine] | 75 | 34 |
